Data on two compounds can be found in US6180664A (priority 1996, dated 2001).

Series [1] has as its system isolated rabbit aortic rings. Nature of the series: vasodilating properties on isolated rabbit aortic rings. As to conditions: 50% effective concentration EC50 given as pD2 (concentration in log M); relaxation of phenylephrine-type contraction; cumulative concentrations 1 nM to 10 μM.
Series [2] is described as follows: solubility.

Take `O=[N+]([O-])OCC(CO)(CO)CO[N+](=O)[O-]`: the pD2 value in series [1] is listed as -6.6 log M.

For the compound `O=C(O)C(CO[N+](=O)[O-])(CO[N+](=O)[O-])CO[N+](=O)[O-]`, the solubility in acetone result in series [2] (acetone) is given as “readily soluble”. The solubility in chloroform result in series [2] (chloroform) is reported as “sparingly soluble”. In series [2] (hexane), the solubility in hexane entry is on record as “insoluble”. Also, the solubility in methanol result in series [2] (methanol) was “readily soluble”. Moreover, the “solubility in methylene chloride” value in series [2] (methylene chloride) was “sparingly soluble”. Further, the solubility in toluene result in series [2] (toluene) is reported as “sparingly soluble”. The solubility in water entry in series [2] (water) is given as “readily soluble”.
